# Data as given in patent US11612567B2, “Ocular inserts comprising a covalently linked steroid dimer” (Ripple Therapeutics Corporation, priority 2018, dated 2023).
# Details: heat molded pellets of the heterodimer, PBS and/or 100% FBS, 37° C.
substance,measurement,value
Dexamethasone-Triethylene Glycol-Hydrocortisone [Compound 4],drugs released from pellets,released both dexamethasone and hydrocortisone
